Assay results from ChEMBL document CHEMBL1122880, “Hybromet: a ligand for purifying opioid receptors” (1985).

The chains behind the UniProt entries cited, without tags or fusion partners. Where a name states a change or a piece, a line headed by the entry shows the natural chain unless it says otherwise.
UniProt P33533: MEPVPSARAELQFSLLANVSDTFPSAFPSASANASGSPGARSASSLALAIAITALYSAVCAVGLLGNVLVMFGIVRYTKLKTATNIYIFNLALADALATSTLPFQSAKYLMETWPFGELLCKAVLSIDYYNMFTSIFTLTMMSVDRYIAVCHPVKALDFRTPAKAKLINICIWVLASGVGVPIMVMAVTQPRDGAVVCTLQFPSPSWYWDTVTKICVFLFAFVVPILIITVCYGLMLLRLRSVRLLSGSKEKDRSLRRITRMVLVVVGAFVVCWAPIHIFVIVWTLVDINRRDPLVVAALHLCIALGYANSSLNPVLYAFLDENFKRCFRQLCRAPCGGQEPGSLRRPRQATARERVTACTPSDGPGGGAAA
UniProt P33535: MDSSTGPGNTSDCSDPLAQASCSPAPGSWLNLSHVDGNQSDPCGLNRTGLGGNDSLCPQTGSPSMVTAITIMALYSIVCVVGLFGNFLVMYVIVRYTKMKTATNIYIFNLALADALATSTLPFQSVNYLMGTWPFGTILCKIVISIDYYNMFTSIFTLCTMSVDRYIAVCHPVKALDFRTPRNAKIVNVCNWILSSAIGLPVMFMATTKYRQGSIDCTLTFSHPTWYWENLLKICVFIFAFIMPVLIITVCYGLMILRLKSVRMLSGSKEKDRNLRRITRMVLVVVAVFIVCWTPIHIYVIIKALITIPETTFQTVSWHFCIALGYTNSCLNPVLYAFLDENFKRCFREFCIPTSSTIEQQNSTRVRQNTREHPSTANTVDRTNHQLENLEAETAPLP

Columns and labels:
[1] = target: Delta-type opioid receptor (Rattus norvegicus, UniProt P33533); test: Evaluated for the inhibition of [3H]DADLE binding to Opioid receptor delta 1 in rat brain homogenates.
[2] = target: Mu-type opioid receptor (Rattus norvegicus, UniProt P33535); test: Evaluated for the inhibition of [3H]naltrexone binding to Opioid receptor mu 1 in rat brain homogenates.

Substance	IC50 [1]	IC50 [2]
7alpha-[(1R)-1-Hydroxy1-methyl-3-[4-[3-(bromomercurio)-2-methoxypropoxy]phenyl]-6,14-endo-ethenotetrahydro-N-(cyclopropylmethyl)northebaine]	100 nM	100 nM
HYBROMET	250 nM	95 nM
